# Assay results from patent US7968561B2, “Steroidal compounds as steroid sulphatase inhibitors” (Sterix Limited, priority 2006, dated 2011).
# Tested on: MCF-7STS cells (MCF-7 cells over expressing STS)
# Assay: Growth of E2S-stimulated MCF-7STS xenograft tumours in nude mice
# Assay type: in vivo
structure (smiles),measurement,setting,value
"C[C@]12CCC3c4ccc(OS(N)(=O)=O)cc4CCC3C1CC(=O)N(CCC(F)(F)F)C2=O (some centres unmarked) [STX1938, 3-Sulfomoyloxy-N-(3,3,3-trifluoropropyl)-16,17-seco-Estra-1,3,5(10)-triene-16,17-imide]",growth of E2S stimulated tumours,"Study 1: 1 mg/kg and 10 mg/kg p.o., 5/7 days per week, nude mice",significantly reduced
same,tumour growth,Study 2: 1 mg/kg p.o. once per week for 7 weeks,significantly reduced
